This passage reports IC50 results from US20160159816A1, “SUBSTITUTED THIENOPYRIMIDINES AND PHARMACEUTICAL USE THEREOF” (BAYER PHARMA AKTIENGESELLSCHAFT, priority 2013, published 2016).

Chains of the proteins cited; added tags and fusions are not shown. Residues count along the entry.
UniProt Q9BUB5, 1-424 isoform 2 T344D: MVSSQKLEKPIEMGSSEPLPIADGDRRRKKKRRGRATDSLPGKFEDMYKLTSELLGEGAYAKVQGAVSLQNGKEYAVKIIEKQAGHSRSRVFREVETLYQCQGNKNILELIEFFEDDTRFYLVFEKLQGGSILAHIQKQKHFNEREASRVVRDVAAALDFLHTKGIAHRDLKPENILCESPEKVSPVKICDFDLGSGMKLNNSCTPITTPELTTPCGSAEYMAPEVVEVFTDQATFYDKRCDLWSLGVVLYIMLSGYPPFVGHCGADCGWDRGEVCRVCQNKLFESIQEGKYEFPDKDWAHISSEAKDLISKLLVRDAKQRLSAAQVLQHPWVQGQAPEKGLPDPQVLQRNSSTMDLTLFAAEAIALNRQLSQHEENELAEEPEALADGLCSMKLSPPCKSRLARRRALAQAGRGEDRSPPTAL

This experiment addresses human full-length MKNK1 (Homo sapiens, UniProt Q9BUB5, T385D). The experiment is described as follows: MKNK1 kinase high ATP assay (TR-FRET). Particulars: read-out: MKNK1 IC50; high ATP (2 mM); reference compounds disclosed in WO2005/010008(A1) (Table 1b). On the procedure:
MKNK1-inhibitory activity at high ATP of compounds of the present invention after their preincubation with MKNK1 was quantified employing the TR-FRET-based MKNK1 high ATP assay as described in the following paragraphs.
A recombinant fusion protein of Glutathione-S-Transferase (GST, N-terminally) and human full-length MKNK1 (amino acids 1-424 and T344D of accession number BAA 19885.1), expressed in insect cells using baculovirus expression system and purified via glutathione sepharose affinity chromatography, was purchased from Carna Biosciences (product no 02-145) and used as enzyme. As substrate for the kinase reaction the biotinylated peptide biotin-Ahx-IKKRKLTRRKSLKG (C-terminus in amide form) was used, which can be purchased e.g. from the company Biosyntan (Berlin-Buch, Germany).
For the assay 50 nL of a 100 fold concentrated solution of the test compound in DMSO was pipetted into a black low volume 384 well microtiter plate (Greiner Bio-One, Frickenhausen, Germany), 2 μL of a solution of MKNK1 in aqueous assay buffer [50 mM HEPES pH 7.5, 5 mM MgCl2, 1.0 mM dithiothreitol, 0.005% (v/v) Nonidet-P40 (Sigma)] was added and the mixture was incubated for 15 min at 22° C. to allow pre-binding of the test compounds to the enzyme before the start of the kinase reaction. Then the kinase reaction was started by the addition of 3 μL of a solution of adenosine-tri-phosphate (ATP, 3.3 mM=>final conc. in the 5 μL assay volume is 2 mM) and substrate (0.1 μM=>final conc. in the 5 μL assay volume is 0.06 μM) in assay buffer and the resulting mixture was incubated for a reaction time of 30 min at 22° C. The concentration of MKNK1 was adjusted depending of the activity of the enzyme lot and was chosen appropriate to have the assay in the linear range, typical concentrations were in the range of 0.003 μg/mL. The reaction was stopped by the addition of 5 μL of a solution of TR-FRET detection reagents (5 nM streptavidine-XL665 [Cisbio Bioassays, Codolet, France] and 1 nM anti-ribosomal protein […] (pSer236)-antibody from Invitrogen [#44921G] and 1 nM LANCE EU-W1024 labeled ProteinG [Perkin-Elmer, product no. AD0071]) in an aqueous EDTA-solution (100 mM EDTA, 0.1% (w/v) bovine serum albumin in 50 mM HEPES pH 7.5).
The resulting mixture was incubated for 1 h at 22° C. to allow the formation of complex between the phosphorylated biotinylated peptide and the detection reagents. Subsequently the amount of phosphorylated substrate was evaluated by measurement of the resonance energy transfer from the Eu-chelate to the streptavidine-XL. Therefore, the fluorescence emissions at 620 nm and 665 nm after excitation at 350 nm were measured in a TR-FRET reader, e.g. a Rubystar (BMG Labtechnologies, Offenburg, Germany) or a Viewlux (Perkin-Elmer). […]
On the technique in general: In TR-FRET formats the signal depends on donor and acceptor labels being close together.

As a reminder, the IC50 is the concentration that inhibits the measured activity by half. On to `CCOC(=O)CC1CCc2c(sc3ncnc(Nc4ccc5c(cnn5Cc5ccccc5)c4)c23)C1` (stereo not shown), for which the IC50 came out at 19300 nM.

With `OCCC1CCc2c(sc3ncnc(Nc4ccc5c(cnn5Cc5ccccc5)c4)c23)C1` (stereo not shown), the IC50 is 1400 nM.

Take `OC1CCN(CCC2CCc3c(sc4ncnc(Nc5ccc6c(cnn6Cc6ccccc6)c5)c34)C2)C1` (stereo not shown): the IC50 worked out at 1110 nM.

For the compound `CN(C)CCC1CCc2c(sc3ncnc(Nc4ccc5c(cnn5Cc5ccccc5)c4)c23)C1` (stereo not shown), the IC50 amounted to 1100 nM.
